The values that follow come from US20120258967A1, “PI3 KINASE INHIBITORS AND USES THEREOF” (AVILA THERAPEUTICS, INC., priority 2011, published 2012).

Amino acid sequences for entries named in this document (tags omitted). A change or cut given only in a name is not applied to a line headed by its entry.
UniProt P42338: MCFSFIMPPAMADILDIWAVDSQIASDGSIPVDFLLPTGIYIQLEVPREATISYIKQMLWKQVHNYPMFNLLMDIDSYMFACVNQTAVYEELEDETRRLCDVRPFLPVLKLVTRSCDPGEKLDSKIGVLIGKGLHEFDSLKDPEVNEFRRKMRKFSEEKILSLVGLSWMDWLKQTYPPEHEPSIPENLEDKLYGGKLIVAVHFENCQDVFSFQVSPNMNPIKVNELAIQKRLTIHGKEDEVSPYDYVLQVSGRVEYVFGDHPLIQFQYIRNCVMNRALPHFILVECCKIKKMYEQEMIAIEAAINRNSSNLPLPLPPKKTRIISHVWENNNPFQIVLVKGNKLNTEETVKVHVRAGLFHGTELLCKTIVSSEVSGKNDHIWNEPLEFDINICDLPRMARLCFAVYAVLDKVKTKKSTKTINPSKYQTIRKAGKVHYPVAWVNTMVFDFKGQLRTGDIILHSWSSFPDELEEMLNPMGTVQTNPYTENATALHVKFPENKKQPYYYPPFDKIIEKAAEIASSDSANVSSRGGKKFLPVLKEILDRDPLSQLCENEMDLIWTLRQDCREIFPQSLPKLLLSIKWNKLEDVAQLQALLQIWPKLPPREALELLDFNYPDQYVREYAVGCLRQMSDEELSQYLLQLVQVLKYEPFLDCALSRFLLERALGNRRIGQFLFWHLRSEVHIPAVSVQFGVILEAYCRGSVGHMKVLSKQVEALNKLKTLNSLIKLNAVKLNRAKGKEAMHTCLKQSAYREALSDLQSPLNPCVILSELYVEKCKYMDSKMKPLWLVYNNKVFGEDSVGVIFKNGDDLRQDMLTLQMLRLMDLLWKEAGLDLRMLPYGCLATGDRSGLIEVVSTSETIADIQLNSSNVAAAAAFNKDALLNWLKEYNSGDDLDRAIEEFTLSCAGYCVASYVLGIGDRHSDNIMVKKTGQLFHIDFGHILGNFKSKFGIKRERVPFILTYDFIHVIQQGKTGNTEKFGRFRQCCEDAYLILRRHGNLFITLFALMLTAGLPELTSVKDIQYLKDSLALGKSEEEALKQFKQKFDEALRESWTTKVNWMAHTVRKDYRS

Like-named read-outs stand apart in the source and are kept apart here. Bounds are passed on as bounds.

The target of test [1] is T1, PI3Kβ (p110β/p85α) (Homo sapiens, UniProt P42338).
T1 construct: purchased BPS Bioscience or Millipore
The conditions noted are these: published value; read-out: published IC50 (p110β/p85α enzyme); cited from earlier work.

Test [2] has as its target T1, PI3Kβ (p110β/p85α). The experiment in a line: HTRF assay, reference inhibitors on PI3Kβ. It is filed as biochemical. The conditions noted are these: n=6, read-out: Reference Inhibitor IC50 estimated for p110β/p85α enzyme. The procedure: Homogeneous Time Resolved Fluorescence (HTRF) Assay Protocol for Potency Assessment Against the Active Forms of PI3Kα, PI3Kβ, and PI3Kγ
The mechanics of the assay platform are best described by the vendor (Millipore, Billerica, Mass.) on their website at the following URL: www.millipore.com/coa/tech1/74jt4z.
Briefly, Stop solution (Stop A, #33-007 and Stop B, #33-009; 3:1 ratio) and Detection Mix (from DMC, #33-015 with DMA, #33-011 and DMB, #33-013; 18:1:1 ratio) were prepared as recommended by the manufacturer about 2 hrs prior to use. […] Lipid kinase reactions were started with the addition of 5 μL of ATP solution, mixed for 15 sec on a rotary plate shaker and incubated for 30-60 minutes at 25° C. Next, reactions were stopped with a 5 μL addition of Stop solution immediately followed by a 5 μL volume of Detection Mix.

As for `O=c1cc(N2CCOCC2)oc2c(-c3ccccc3)cccc12` [LY294002], the IC50 at PI3Kβ (p110β/p85α) [1] and on PI3Kβ (p110β/p85α) [2] was over 1 µM each time.
